The values below come from ChEMBL document CHEMBL1144377, “Oximinoarylsulfonamides as potent HIV protease inhibitors” (Bioorg Med Chem Lett, 2005).

For this assay, the system named is Human immunodeficiency virus 1. Nature of the assay: Inhibitory concentration against wild type human immunodeficiency virus. The class given is functional, organism-based.

Regarding `Cc1cccc(C)c1OCC(=O)N[C@@H](Cc1ccccc1)[C@@H](O)C[C@H](Cc1ccccc1)NC(=O)[C@H](C(C)C)N1CCCNC1=O` [LOPINAVIR], the IC50 (as a rule, the concentration that inhibits the measured activity by half) was 35 nM.
